Patent publication US12202828B2, “Bicyclic heterocycle compounds and their uses in therapy” (ASTEX THERAPEUTICS LIMITED, priority 2013, dated 2025)
pEC50: −log10 of the molar value. “And” between values parts separate entries of the source, which are not always exact repeats. Equal values may be shown once.

Chains of the proteins cited; added tags and fusions are not shown.
UniProt Q12809, whole entry: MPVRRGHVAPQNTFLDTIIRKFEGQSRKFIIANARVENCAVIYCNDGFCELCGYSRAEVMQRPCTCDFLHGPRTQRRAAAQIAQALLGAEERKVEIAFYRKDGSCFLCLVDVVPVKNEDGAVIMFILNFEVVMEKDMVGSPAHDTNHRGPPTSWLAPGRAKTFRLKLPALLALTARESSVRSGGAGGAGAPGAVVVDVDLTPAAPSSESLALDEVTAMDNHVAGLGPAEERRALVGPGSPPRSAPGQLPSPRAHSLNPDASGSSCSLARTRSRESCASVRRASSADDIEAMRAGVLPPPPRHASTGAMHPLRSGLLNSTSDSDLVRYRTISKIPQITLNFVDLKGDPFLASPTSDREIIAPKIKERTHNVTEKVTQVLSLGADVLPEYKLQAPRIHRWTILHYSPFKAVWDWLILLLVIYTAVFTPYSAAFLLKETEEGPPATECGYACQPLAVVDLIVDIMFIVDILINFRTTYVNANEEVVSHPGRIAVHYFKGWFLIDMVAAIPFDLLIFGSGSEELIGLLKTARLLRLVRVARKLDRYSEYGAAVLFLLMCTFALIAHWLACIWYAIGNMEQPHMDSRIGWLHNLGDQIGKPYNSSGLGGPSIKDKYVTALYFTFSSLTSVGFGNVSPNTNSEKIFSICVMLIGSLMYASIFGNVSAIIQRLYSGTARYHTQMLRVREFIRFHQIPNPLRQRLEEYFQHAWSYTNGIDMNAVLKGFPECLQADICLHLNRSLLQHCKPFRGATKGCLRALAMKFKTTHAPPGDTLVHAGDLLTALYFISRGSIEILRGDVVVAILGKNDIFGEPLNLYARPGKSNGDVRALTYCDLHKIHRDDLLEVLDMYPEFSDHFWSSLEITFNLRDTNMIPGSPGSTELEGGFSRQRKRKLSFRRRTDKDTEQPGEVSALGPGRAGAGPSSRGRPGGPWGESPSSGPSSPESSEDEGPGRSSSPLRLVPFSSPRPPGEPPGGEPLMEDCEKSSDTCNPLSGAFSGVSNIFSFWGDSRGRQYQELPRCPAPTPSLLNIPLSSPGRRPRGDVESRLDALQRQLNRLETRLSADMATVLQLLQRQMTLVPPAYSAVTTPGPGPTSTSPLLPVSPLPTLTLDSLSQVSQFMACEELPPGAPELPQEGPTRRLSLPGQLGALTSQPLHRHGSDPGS

Key:
[1] = tested on: EVSA-T (human breast carcinoma); test: Anti-proliferative activity, Alamar Blue assay, EVSA-T; format: cell-based; conditions: read-out: EVSA-T prolif, 72 hours compound, tested form: 2HCl
hERG ion channel = hERG ion channel (Homo sapiens, UniProt Q12809); test: Population Patch Clamp (PPC) hERG assay in CHO K1 cells; format: cell-based; conditions: @ 10 μM; tested form: 2HCl; listed as Example 259 (also 262 and 263) of WO 2012/143726

Question: With `C[C@@H]1CN(CC(=O)N2CC(C)(C)c3ncc(Cc4ccc(F)cc4)cc32)[C@@H](CN2CCOC[C@H]2C)CN1` as the compound, how does the pEC50 [1] read?
Answer: 9.09 and 9.08

Question: And the “hERG PPC (PI)” value (hERG ion channel)?
Answer: 42%
